Measurements taken from patent US20100152622A1, “MOTOR PHENOMENON MEASUREMENT” (priority 2007, published 2010).

Tests used:
schizophrenia patients [1] = settings: handwriting dysfluency; for average normalized jerk (ANJ) score compared between medication groups: marker of TD/EPS, 9 handwriting tasks, dominant hand, 1, 2, 4 cm, versus other medications; for average normalized jerk (ANJ) score compared with healthy subjects: medication group versus normal healthy subjects
schizophrenia patients [2] = settings: in vivo

Row | Structure (SMILES) | average normalized jerk (ANJ) score compared between medication groups (schizophrenia patients [1]) | average normalized jerk (ANJ) score compared with healthy subjects (schizophrenia patients [1]) | correlation (r) of average normalized jerk (ANJ) with daily dose (schizophrenia patients [2])
1 | Cc1nc2n(c(=O)c1CCN1CCC(c3noc4cc(F)ccc34)CC1)CCCC2 [risperidone] | significant group effect for risperidone versus quetiapine | significantly higher ANJ scores than healthy subjects | 0.78
2 | Cc1cc2c(s1)Nc1ccccc1N=C2N1CCN(C)CC1 [olanzapine] | significantly less abnormality than those treated with aripiprazole or risperidone | did not differ from normal healthy subjects | –
